Yeast mating assay B: variants of the scFv Ab-14

From the AlphaSeq antibody data of Li et al. 2023 (doi:10.1038/s41467-023-39022-2), copy in the FLAb collection.

Target: peptide PDVDLGDISGINAS, taken from heptad repeat 2 (HR2) of SARS-CoV-2 spike.

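The starting antibody came from a phage panning campaign against this peptide. The variants were designed computationally from a first round of random CDR variants and then made and measured. Group labels follow the data file (Ctrl: baseline library sampled from a position-specific scoring matrix, with some repeated check sequences; Rand: our label for a block that the file lists under HC and that is probably the random mutants of the ten best first-round binders; GP: Gaussian process model; HC: hill climbing; Gen: genetic algorithm; Gibbs: Gibbs sampling; a sequence that several methods proposed may carry one label only). AlphaSeq pools MATa yeast showing the antibodies with MATalpha yeast showing the peptide. After mating in shaken culture at 30 °C for 16 h, diploids were selected and their barcode pairs sequenced. The ratio of observed to expected reads was calibrated, replicate by replicate, on BCL2-family standards whose Kd was known from biolayer interferometry. There are six technical replicates.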

Parent scFv Ab-14: VH joined to VL by a 15-residue (Gly4Ser)3 linker. Changes lie in the light chain CDRs alone.
VH: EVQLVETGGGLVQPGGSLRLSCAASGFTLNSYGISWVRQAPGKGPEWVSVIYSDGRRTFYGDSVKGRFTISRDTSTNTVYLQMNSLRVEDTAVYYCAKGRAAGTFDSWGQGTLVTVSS
VL: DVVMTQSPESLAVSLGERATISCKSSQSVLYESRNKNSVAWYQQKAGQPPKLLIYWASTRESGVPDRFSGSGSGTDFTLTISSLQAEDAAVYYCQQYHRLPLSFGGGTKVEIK

Sequences are complete VL domains.
This list holds designs with at most six substitutions.
Values are log10 of the apparent Kd in nM; lower means stronger binding.
A mean of the replicates is given; it leaves out those without a signal.
A pair that was not seen in any replicate is written "no signal"; this usually means weak binding, but a binder can also be missed.
The range of this assay differs from that of the first round, and the authors advise against merging the two.

For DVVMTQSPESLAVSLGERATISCKSSQSWLYESRNKNSVAWYQQKAGQPPKLLIYGASMRESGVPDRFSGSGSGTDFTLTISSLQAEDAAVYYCQQYHRLPLMFGGGTKVEIK [GP_HC], the assay gave -0.13 (6 of 6 replicates).
For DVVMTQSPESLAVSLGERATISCKHSQSFLYESRWKNSVAWYQQKAGQPPKLLIYGASQRESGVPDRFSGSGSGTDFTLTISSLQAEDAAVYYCQQYHRLPLSFGGGTKVEIK [GP_HC], the assay gave 0.81 (6 of 6 replicates).
For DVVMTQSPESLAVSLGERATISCKLSQSWEYESRNKNSVAWYQQKAGQPPKLLIYNASQRESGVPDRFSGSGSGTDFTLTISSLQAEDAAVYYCQQYHRLPLSFGGGTKVEIK [GP_Gen], the assay gave -0.18 (6 of 6 replicates).
For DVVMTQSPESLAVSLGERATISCKVSPSVLYESRNKNAVAWYQQKAGQPPKLLIYEASTRESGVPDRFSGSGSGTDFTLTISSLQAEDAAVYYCQQYHRLPLSFGGGTKVEIK [GP_Gen], the assay gave -0.84 (6 of 6 replicates).
For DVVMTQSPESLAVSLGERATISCKFSQSDLYESRMKNSVAWYQQKAGQPPKLLIYNASTRESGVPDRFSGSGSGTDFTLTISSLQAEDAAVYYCQQYHRLPLSFGGGTKVEIK [GP_HC], the assay gave 0.14 (6 of 6 replicates).
For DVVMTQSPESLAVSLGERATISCKSSQSCWYESRNKNSVAWYQQKAGQPPKLLIYEASTREKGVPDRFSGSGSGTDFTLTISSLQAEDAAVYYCQQYHRLPLSFGGGTKVEIK [Ctrl], the assay gave 0.32 (6 of 6 replicates).
For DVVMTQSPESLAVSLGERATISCKSSQSVKFESRNKNSVAWYQQKAGQPPKLLIYDASTRCSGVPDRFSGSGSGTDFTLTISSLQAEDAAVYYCQQYHRLPLSFGGGTKVEIK [GP_HC], the assay gave 0.28 (6 of 6 replicates).
For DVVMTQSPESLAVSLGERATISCKSSSSVLYESRNKNSVAWYQQKAGQPPKLLIYWASTRENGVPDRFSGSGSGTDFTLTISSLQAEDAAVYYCQQYHRLPLSFGGGTKVEIK [Ctrl], the assay gave 1.68 (6 of 6 replicates).
For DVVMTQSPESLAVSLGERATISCKSSISYLEESRNKNSVAWYQQKAGQPPKLLIYEASTREQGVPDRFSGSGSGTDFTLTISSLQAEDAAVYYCQQYHRLPLSFGGGTKVEIK [GP_HC], the assay gave 0.89 (6 of 6 replicates).
For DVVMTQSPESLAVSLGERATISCKSSQSELYESRNVNSVAWYQQKAGQPPKLLIYAASTRESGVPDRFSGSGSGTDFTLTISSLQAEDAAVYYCQTYHRAPLSFGGGTKVEIK [Ctrl], the assay gave 1.16 (1 of 6 replicates).
For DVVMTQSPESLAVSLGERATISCKLSQSVLGEQRNKNSVAWYQQKAGQPPKLLIYDASTRESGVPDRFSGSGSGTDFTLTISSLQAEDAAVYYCQQYHRLPLSFGGGTKVEIK [GP_HC], the assay gave -0.20 (6 of 6 replicates).
For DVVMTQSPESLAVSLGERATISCKSSQSRLYESRNKNSVAWYQQKAGQPPKLLIYEASVRESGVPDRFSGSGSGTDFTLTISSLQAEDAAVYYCQQYHRLPLSFGGGTKVEIK [Ctrl], the assay gave 0.42 (6 of 6 replicates).
For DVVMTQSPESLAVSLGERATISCKVSPSFLYESRNKNSVAWYQQKAGQPPKLLIYEASTRESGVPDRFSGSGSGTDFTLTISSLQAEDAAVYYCQQYHRLPLSFGGGTKVEIK [GP_Gen], the assay gave 0.93 (6 of 6 replicates).
For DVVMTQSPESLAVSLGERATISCKLMQSEPYESRNKNSVAWYQQKAGQPPKLLIYNASTRESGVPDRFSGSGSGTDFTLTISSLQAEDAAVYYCQQYHRLPLSFGGGTKVEIK [GP_Gen], the assay gave -0.06 (6 of 6 replicates).
For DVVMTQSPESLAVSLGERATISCKSDQSVLYESTNKNSVAWYQQKAGQPPKLLIYWASTRESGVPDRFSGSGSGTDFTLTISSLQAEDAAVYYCQQYHRLPLSFGGGTKVEIK [Ctrl], the assay gave 0.95 (6 of 6 replicates).
For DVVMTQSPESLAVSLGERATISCKQSQSVLYESRNKNSVAWYQQKAGQPPKLLIYDASTRESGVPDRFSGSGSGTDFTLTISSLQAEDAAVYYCQQYHRLPLVFGGGTKVEIK [GP_HC], the assay gave -0.07 (6 of 6 replicates).
For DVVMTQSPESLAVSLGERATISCKFSQSVLYESRTKNSVAWYQQKAGQPPKLLIYNASTRESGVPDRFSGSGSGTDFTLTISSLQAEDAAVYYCNQYHRLPLSFGGGTKVEIK [Rand], the assay gave no signal (0 of 6 replicates).
For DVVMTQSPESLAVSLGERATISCKSSQSLLYESRNKNSVAWYQQKAGQPPKLLIYEASTRESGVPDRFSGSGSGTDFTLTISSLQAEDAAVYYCQQYHRLPLSFGGGTKVEIK [Ctrl], the assay gave 0.37 (6 of 6 replicates).
For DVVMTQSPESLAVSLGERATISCIAQQSWLYESRNKNSVAWYQQKAGQPPKLLIYGASTRESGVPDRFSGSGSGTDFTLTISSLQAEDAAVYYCQQYHRLPLIFGGGTKVEIK [GP_HC], the assay gave 0.21 (6 of 6 replicates).
For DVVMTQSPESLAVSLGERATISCKSSGSVLGEDWNKNSVAWYQQKAGQPPKLLIYNASKRESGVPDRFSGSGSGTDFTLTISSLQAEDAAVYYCQQYHRLPLSFGGGTKVEIK [GP_Gibbs], the assay gave 0.31 (6 of 6 replicates).
For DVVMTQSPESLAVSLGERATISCKFSPSYLYESRTKNSVAWYQQKAGQPPKLLIYNASTRESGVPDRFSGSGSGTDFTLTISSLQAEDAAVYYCQQYHRLPLSFGGGTKVEIK [GP_HC], the assay gave -0.07 (6 of 6 replicates).
For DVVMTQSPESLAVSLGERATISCKLMQSWLYESRNKNSVAWYQQKAGQPPKLLIYGASTRESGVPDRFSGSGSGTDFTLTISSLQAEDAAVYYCQQYHRLPLSFGGGTKVEIK [GP_Gen], the assay gave 1.59 (6 of 6 replicates).
For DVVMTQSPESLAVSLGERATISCKISFSVLYESRNKNSVAWYQQKAGQPPKLLIYGASTRNAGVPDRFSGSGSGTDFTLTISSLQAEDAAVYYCQQYHRLPLSFGGGTKVEIK [Ctrl], the assay gave 0.94 (6 of 6 replicates).
For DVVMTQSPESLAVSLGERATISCKSCQSVLYESRNKNSVAWYQQKAGQPPKLLIYHASTREDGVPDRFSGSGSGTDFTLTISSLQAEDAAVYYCKQYHRLPLSFGGGTKVEIK [Rand], the assay gave no signal (0 of 6 replicates).

A selection of 2 entries from above:

| VL | group | mean log10 Kd (nM) | seen in |
|---|---|---|---|
| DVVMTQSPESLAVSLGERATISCKLMQSWLYESRNKNSVAWYQQKAGQPPKLLIYGASTRESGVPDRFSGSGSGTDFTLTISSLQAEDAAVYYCQQYHRLPLSFGGGTKVEIK | GP_Gen | 1.59 | 6 of 6 |
| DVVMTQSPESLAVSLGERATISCKSSSSVLYESRNKNSVAWYQQKAGQPPKLLIYWASTRENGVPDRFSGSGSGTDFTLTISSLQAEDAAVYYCQQYHRLPLSFGGGTKVEIK | Ctrl | 1.68 | 6 of 6 |

Three control strains display no target. For all light chain designs, 4% of the pairings with them gave a signal, with a median of 2.64 and one signal in twenty below 1.59, so weak values seen in few replicates may be background.
In the paper, a design with two or fewer of six values counts as a poor binder.